# Laboratory results as given in US20110262355A1, “COMPOSITIONS COMPRISING ENZYME-CLEAVABLE OPIOID PRODRUGS AND INHIBITORS THEREOF” (priority 2010, published 2011).
# Molecular target: T1, trypsin from bovine pancreas (Bos taurus, UniProt P00760)
# T1 sequence (P00760 24-246): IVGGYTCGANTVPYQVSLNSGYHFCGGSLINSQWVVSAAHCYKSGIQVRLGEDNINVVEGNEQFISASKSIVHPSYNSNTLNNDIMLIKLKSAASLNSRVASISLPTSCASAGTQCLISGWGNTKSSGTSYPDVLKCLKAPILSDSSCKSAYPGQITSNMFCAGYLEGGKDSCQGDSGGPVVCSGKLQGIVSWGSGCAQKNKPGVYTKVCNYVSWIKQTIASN
# Test: In vitro trypsin conversion of prodrugs to hydromorphone and inhibition by trypsin inhibitor
# Settings: 0.761 mM prodrug; 0.02 to 0.0228 mg/mL trypsin; 37° C.; no trypsin inhibitor
row,Compound,"Rate of HM formation, umols/h/umol trypsin Average ± sd"
1,"CC(=O)NC(CCCNC(=N)N)C(=O)NCCN(C)C(=O)Oc1ccc2c3c1OC1C(=O)CCC4C(C2)N(C)CCC314 (stereo not drawn) [Compound PC-1, hydromorphone 3-(N-methyl-N-(2-N′-acetylarginylamino)) ethylcarbamate]",230 ± 8 umols/h/umol trypsin
2,[2-(2-Malonyl-5-guanidino-pentanoylamino)-ethyl]-ethyl-carbamic acid hydromorphone ester [Compound PC-6],262 ± 11 umols/h/umol trypsin
3,[2-((S)-2-malonylamino-4-amino-pentanoyl amino)-ethyl]-ethyl-carbamic acid hydromorphone ester [Compound PC-5],106 ± 2 umols/h/umol trypsin
